From patent US10040791B2, “Isoxazole derivative as mutant isocitrate dehydrogenase 1 inhibitor” (Daiichi Sankyo Company, Limited, priority 2014, dated 2018) come the findings set out here.

By UniProt entry, the sequences of proteins in these tests, tags left out.
UniProt O75874, whole entry R132H: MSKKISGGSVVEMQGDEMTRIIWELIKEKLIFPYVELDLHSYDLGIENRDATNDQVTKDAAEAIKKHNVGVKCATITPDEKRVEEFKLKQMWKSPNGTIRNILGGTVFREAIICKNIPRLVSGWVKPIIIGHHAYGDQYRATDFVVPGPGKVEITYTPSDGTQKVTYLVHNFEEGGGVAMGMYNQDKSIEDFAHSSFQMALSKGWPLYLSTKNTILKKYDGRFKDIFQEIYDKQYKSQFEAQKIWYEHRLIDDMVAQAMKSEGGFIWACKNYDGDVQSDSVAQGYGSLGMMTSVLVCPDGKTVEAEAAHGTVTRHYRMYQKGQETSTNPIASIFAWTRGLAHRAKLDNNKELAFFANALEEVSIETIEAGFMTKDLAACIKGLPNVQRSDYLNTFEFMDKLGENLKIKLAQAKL

The assay addresses IDH1R132H (Homo sapiens (Human), UniProt O75874, R132H). Kind of assay: Inhibitory activity against IDH1R132H enzyme (NADPH detection, WST-8). Format: biochemical. The conditions noted are these: 12 nM, residual NADPH detected with WST-8, read-out: Test Example 1 IDH1 R132H IC50. In general terms: Tetrazolium dyes change colour on reduction, which living cells bring about.
For the molecule `C=CC(=O)N1CC2(CC2)N(c2onc(-c3c(Cl)cccc3OC)c2C(=O)n2ccc3c(/C=C/C(=O)O)cccc32)C[C@H]1CC` [Example 161, (2E)-3-[1-({5-{(6R)7-Acryloyl-6-ethyl-4,7-diazaspiro[2.5]oct-4-yl]-3-(2-chloro-6-methoxyphenyl)-1,2-oxazol-4-yl}carbonyl)-1H-indol-4-yl]prop-2-enoic acid], the IC50 (in general, the concentration at which inhibition is half-maximal) was 35 nM.

On to `COC1(c2onc(-c3c(Cl)cc(Cl)cc3Cl)c2C(=O)n2cc3c4c(cccc42)/C(=C/C(=O)O)CC3)CCC1` [Example 12, (2E)-[1-{[5-(1-Methoxycyclobutyl)-3-(2,4,6-trichlorophenyl)-1,2-oxazol-4-yl]carbonyl}-3,4-dihydrobenzo[cd]indol-5(1H)-ylidene]ethanoic acid], for which the IC50 was found to be 16 nM.

Regarding `C=CC(=O)N1CC2(CC2)N(c2onc(-c3c(Cl)cccc3Cl)c2C(=O)n2ccc3c(/C=C/C(=O)O)cccc32)C[C@H]1CC` [Example 163, (2E)-3-[1-({5-[(6R)7-Acryloyl-6-ethyl-4,7-diazaspiro[2.5]oct-4-yl]-3-(2,6-dichlorophenyl)-1,2-oxazol-4-yl}carbonyl)-1H-indol-4-yl]prop-2-enoic acid], the IC50 came out at 16 nM.

For `CC1(c2onc(-c3c(Cl)cccc3Cl)c2C(=O)n2ccc3c(/C=C/C(=O)O)cccc32)CCO1` (centres unmarked) [Example 77, (2E)-3-(1-{[3-(2,6-Dichlorophenyl)-5-(2-methyloxetan-2-yl)-1,2-oxazol-4-yl]carbonyl}-1H-indol-4-yl)prop-2-enoic acid], the IC50 amounted to 8 nM.

For the molecule `CC(=O)c1cn(C(=O)c2c(-c3c(Cl)cc(Cl)cc3Cl)noc2C(C)(C)F)c2cccc(/C=C/C(=O)O)c12` [Example 64, (2E)-3-(3-Acetyl-1-{[5-(2-fluoropropan-2-yl)-3-(2,4,6-trichlorophenyl)-1,2-oxazol-4-yl]carbonyl}-1H-indol-4-yl)prop-2-enoic acid], the IC50 was determined as 252 nM.

Consider `C=CC(=O)N1CCC(c2onc(-c3c(Cl)cc(Cl)cc3Cl)c2C(=O)n2ccc3c(C4CC4C(=O)O)cccc32)CC1` (centres unmarked) [Example 105], for which the IC50 stood at 519 nM.

On to `NC[C@@H]1CCN(c2onc(-c3c(Cl)cccc3Cl)c2C(=O)n2ccc3c(/C=C/C(=O)O)cccc32)C1` [Example 140], for which the IC50 turned out to be 256 nM.

Regarding `Cc1cn(C(=O)c2c(-c3ccc(Cl)cc3Cl)noc2C(C)(C)F)c2cccc(/C=C/C(=O)O)c12` [Example 62, (2E)-3-(1-{[3-(2,4-Dichlorophenyl)-5-(2-fluoropropan-2-yl)-1,2-oxazol-4-yl]carbonyl}-3-methyl-1H-indol-4-yl)prop-2-enoic acid], the IC50 was 20 nM.

Consider `COC1(c2onc(-c3c(Cl)cc(Cl)cc3Cl)c2C(=O)n2ccc3c(/C=C/C(=O)O)cccc32)COC1` [Example 3, (2E)-3-(1-{[5-(3-Methoxyoxetan-3-yl)-3-(2,4,6-trichlorophenyl)-1,2-oxazol-4-yl]carbonyl}-1H-indol-4-yl)prop-2-enoic acid], for which the IC50 worked out at 7 nM.

Take `COC1(c2onc(-c3c(Cl)cc(Cl)cc3Cl)c2C(=O)n2cc(C)c3c(/C=C/C(=O)O)cccc32)COC1` [Example 4, (2E)-3-(1-{[5-(3-Methoxyoxetan-3-yl)-3-(2,4,6-trichlorophenyl)-1,2-oxazol-4-yl]carbonyl}-3-methyl-1H-indol-4-yl)prop-2-enoic acid]: the IC50 is 8 nM.

In the case of `C=CC(=O)N1CCC(c2noc(-c3c(Cl)cc(Cl)cc3Cl)c2C(=O)n2ccc3c(/C=C/C(=O)O)cccc32)CC1` [Example 132, (2E)-3-(1-{[3-(1-Acryloylpiperidin-4-yl)-5-(2,4,6-trichlorophenyl)-1,2-oxazol-4-yl]carbonyl}-1H-indol-4-yl)prop-2-enoic acid], the concentration for half-maximal inhibition (IC50) turned out to be 162 nM.

As for `Cc1cn(C(=O)c2c(-c3c(Cl)cc(Br)cc3Cl)noc2C(C)(C)F)c2cccc(/C=C/C(=O)O)c12` [Example 68, (2E)-3-(1-{[3-(4-Bromo-2,6-dichlorophenyl)-5-(2-fluoropropan-2-yl)-1,2-oxazol-4-yl]carbonyl}-3-methyl-1H-indol-4-yl)prop-2-enoic acid], the 50% inhibitory concentration (IC50) turned out to be 15 nM.

For `CNC(C)(C)c1onc(-c2c(Cl)cc(Cl)cc2Cl)c1C(=O)n1cc2c3c(cccc31)/C(=C/C(=O)O)CC2` [Example 85, (2E)-[1-({5-[2-(Methylamino)propan-2-yl]-3-(2,4,6-trichlorophenyl)-1,2-oxazol-4-yl}carbonyl)-3,4-dihydrobenzo[cd]indol-5(1H)-ylidene]ethanoic acid], the IC50 amounted to 14 nM.

As for `COC1(c2onc(-c3c(Cl)cc(Cl)cc3Cl)c2C(=O)n2ccc3c(/C=C/C(=O)O)cccc32)CCC1` [Example 74, (2E)-3-(1-{[5-(1-Methoxycyclobutyl)-3-(2,4,6-trichlorophenyl)-1,2-oxazol-4-yl]carbonyl}-1H-indol-4-yl)prop-2-enoic acid], the IC50 is 20 nM.

For the molecule `CC(C)(F)c1onc(-c2c(Cl)cc(Cl)cc2Cl)c1C(=O)n1cc(Cl)c2c(/C=C/C(=O)O)cccc21` [Example 66, (2E)-3-(3-Chloro-1-{[5-(2-fluoropropan-2-yl)-3-(2,4,6-trichlorophenyl)-1,2-oxazol-4-yl]carbonyl}-1H-indol-4-yl)prop-2-enoic acid], the IC50 is 14 nM.

Regarding `Cc1cn(C(=O)c2c(-c3c(Cl)cc(Cl)cc3Cl)noc2C(C)(C)N(C)C)c2cccc(/C=C/C(=O)O)c12` [Example 91, (2E)-3-[1-({5-[2-(Dimethylamino)propan-2-yl]-3-(2,4,6-trichlorophenyl)-1,2-oxazol-4-yl}carbonyl)-3-methyl-1H-indol-4-yl]prop-2-enoic acid], the IC50 was determined as 21 nM.

Turning to `C=CC(=O)N1CCC(OC)(c2onc(-c3c(Cl)cc(Cl)cc3Cl)c2C(=O)n2cc(C)c3c(/C=C/C(=O)O)cccc32)CC1` [Example 117], the IC50 was 23 nM.

Regarding `C=CC(=O)N1CCCC(c2onc(-c3c(Cl)cc(Cl)cc3Cl)c2C(=O)n2ccc3c(/C=C/C(=O)O)cccc32)C1` (centres unmarked) [Example 96], the IC50 is 149 nM.

For `C=CC(=O)N1CCC(c2onc(-c3c(Cl)cc(Cl)cc3Cl)c2C(=O)n2cc(C)c3c(/C=C/C(=O)O)cccc32)(N(C)C)CC1` [Example 126], the IC50 stood at 37 nM.

As to `C=CC(=O)N1CCC(c2onc(-c3c(Cl)cc(Cl)cc3Cl)c2C(=O)n2cc(C)c3c(/C=C/C(=O)O)cccc32)CC1` [Example 104], the IC50 stood at 32 nM.

Turning to `C=CC(=O)N1CCC(c2onc(-c3c(Cl)cccc3Cl)c2C(=O)n2ccc3c(/C=C/C(=O)O)cccc32)CC1` [Example 102], the IC50 came to 53 nM.

Consider `C=CC(=O)N1CCN(c2onc(-c3c(Cl)cccc3Cl)c2C(=O)n2ccc3c(/C=C/C(=O)O)cccc32)[C@H](C2CC2)C1` [Example 154, (2E)-3-[1-({5-[(2R)-4-Acryloyl-2-cyclopropylpiperazin-1-yl]-3-(2,6-dichlorophenyl)-1,2-oxazol-4-yl}carbonyl)-1H-indol-4-yl]prop-2-enoic acid], for which the half-maximal inhibitory concentration (IC50) is 299 nM.

Take `C=CC(=O)N1CCN(c2onc(-c3c(Cl)cc(Cl)cc3Cl)c2C(=O)n2ccc3c(/C=C/C(=O)O)cccc32)C(C)C1` (stereo in doubt) [Example 146, (2E)-3-[1-({5-[(2R)-4-Acryloyl-2-methylpiperazin-1-yl]-3-(2,4,6-trichlorophenyl)-1,2-oxazol-4-yl}carbonyl)-1H-indol-4-yl]prop-2-enoic acid]: the IC50 was found to be 176 nM.

In the case of `C=CC(=O)N1CC2(CC2)N(c2onc(-c3c(Cl)cccc3Cl)c2C(=O)n2ccc3c(/C=C/C(=O)O)cccc32)C[C@H]1C` [Example 155, (2E)-3-[1-({5-[(6R)7-Acryloyl-6-methyl-4,7-diazaspiro[2.5]oct-4-yl]-3-(2,6-dichlorophenyl)-1,2-oxazol-4-yl}carbonyl)-1H-indol-4-yl]prop-2-enoic acid], the IC50 is 20 nM.

With `COC(C)(C)c1onc(-c2c(Cl)cc(Cl)cc2Cl)c1C(=O)n1ccc2c(/C=C/C(=O)O)cccc21` [Example 31, (2E)-3-(1-{[5-(2-Methoxypropan-2-yl)-3-(2,4,6-trichlorophenyl)-1,2-oxazol-4-yl]carbonyl}-1H-indol-4-yl)prop-2-enoic acid], the IC50 amounted to 7 nM.

For `C=CC(=O)N1CCN(c2onc(-c3c(F)cccc3Cl)c2C(=O)n2ccc3c(/C=C/C(=O)O)cccc32)C(C)(C)C1` [Example 157, (2E)-3-(1-{[5-(4-Acryloyl-2,2-dimethylpiperazin-1-yl)-3-(2-chloro-6-fluorophenyl)-1,2-oxazol-4-yl]carbonyl}-1H-indol-4-yl)prop-2-enoic acid], the IC50 was found to be 314 nM.

Take `C=CC(=O)N1CCC(c2onc(-c3c(Cl)cc(Cl)cc3Cl)c2C(=O)c2cn(C)c3c(/C=C/C(=O)O)cccc23)CC1` [Example 166, (2E)-3-(3-{[5-(1-Acryloylpiperidin-4-yl)-3-(2,4,6-trichlorophenyl)-1,2-oxazol-4-yl]carbonyl}-1-methyl-1H-indol-7-yl)prop-2-enoic acid]: the IC50 was determined as 54 nM.

Turning to `CC(C)(F)c1onc(-c2c(Cl)cc(Cl)cc2Cl)c1C(=O)n1ccc2c(/C=C/C(=O)O)cccc21` [Example 36, (2E)-3-(1-{[5-(2-Fluoropropan-2-yl)-3-(2,4,6-trichlorophenyl)-1,2-oxazol-4-yl]carbonyl}-1H-indol-4-yl)prop-2-enoic acid], the IC50 turned out to be 13 nM.

Take `C=CC(=O)N1CCC(c2onc(-c3ccc(Cl)c(F)c3Cl)c2C(=O)n2cc(C)c3c(/C=C/C(=O)O)cccc32)CC1` [Example 129]: the IC50 was 85 nM.

As to `C=CC(=O)N1CCC(c2onc(-c3c(C)cc(Cl)cc3C)c2C(=O)n2cc(C)c3c(/C=C/C(=O)O)cccc32)CC1` [Example 122], the IC50 turned out to be 32 nM.

Regarding `C=CC(=O)N1CC2(CC2)N(c2onc(-c3c(F)cccc3Cl)c2C(=O)n2ccc3c(/C=C/C(=O)O)cccc32)C[C@H]1C` [Example 156, (2E)-3-[1-({5-[(6R)7-Acryloyl-6-methyl-4,7-diazaspiro[2.5]oct-4-yl]-3-(2-chloro-6-fluorophenyl)-1,2-oxazol-4-yl}carbonyl)-1H-indol-4-yl]prop-2-enoic acid], the IC50 stood at 41 nM.

As to `C[C@@H]1CCC[C@H](C)N1c1onc(-c2c(Cl)cccc2Cl)c1C(=O)n1ccc2c(/C=C/C(=O)O)cccc21` [Example 137, (2E)-3-(1-{[3-(2,6-Dichlorophenyl)-5-(cis-2,6-dimethylpiperidin-1-yl)-1,2-oxazol-4-yl]carbonyl}-1H-indol-4-yl)prop-2-enoic acid], the IC50 is 28 nM.
